The text below walks through data of US20200024315A1, “ANTIMICROBIAL PEPTIDES AND METHODS OF TREATING GRAM-NEGATIVE PATHOGENS” (THE REGENTS OF THE UNIVERSITY OF COLORADO, a body corporate, priority 2017, published 2020).

The test system of one data set is human erythrocytes. The data set is described as follows: Hemolytic activity against human erythrocytes. In kind it is cell-based. The following applies: for hemolytic activity HC50: 1% human erythrocytes, 18 h, 37° C. The procedure:
Peptide samples (concentrations determined by amino acid analysis) were added to 1% human erythrocytes in phosphate-buffered saline (100 mM NaCl, 80 mM Na2HPO4, 20 mM NaH2PO4, pH 7.4) and the reaction mixtures were incubated at 37° C. for 18 h in microtiter plates. Two-fold serial dilutions of the peptide samples were carried out. This determination was made by withdrawing aliquots from the hemolysis assays and removing unlysed erythrocytes by centrifugation (800×g). Hemoglobin release was determined spectrophotometrically at 570 nm. The control for 100% hemolysis was a sample of erythrocytes treated with water. The control for no release of hemoglobin was a sample of 1% erythrocytes without any peptide added. Since erythrocytes were in an isotonic medium, no detectable release (<1% of that released upon complete hemolysis) of hemoglobin was observed from this control during the assay. The hemolytic activity is generally determined as the peptide concentration that causes 50% hemolysis of erythrocytes after 18 h (HC50). HC50 was determined from a plot of percent lysis versus peptide concentration (microM). If 50% hemolysis could not be reached, the inventors used HC30 values (30% hemolysis).

The nature of data set [1]: Circular dichroism (CD) spectroscopy, characterization of helical structure. In kind it is physicochemical. The following applies: for α-helical content (% helix) in aqueous conditions: aqueous benign buffer pH 7.0, 5° C.; for inducible helical structure Δ[Θ]222 nm TFE-Aqueous: difference 50% TFE minus aqueous buffer.

As to “Ac-ALArgArgLLSTLSSAKSSKLSTLLArgALArgArg-amide [D61]”, the “hemolytic activity HC50” value in the data set with human erythrocytes amounted to 3.4 µM. In data set [1], the “α-helical content (% helix) in aqueous conditions” value (from here on “α-helical content (% helix)”) was 10.6% and the “inducible helical structure Δ[Θ]222 nm TFE-Aqueous” value was 835.

For “Ac-ALDbuDbuLLSTLSSAKSSKLSTLLDbuALDbuDbu-amide [D60]”, the “hemolytic activity HC50” value with human erythrocytes is over 1880 µM. For the same substance, the “hemolytic activity (in words)” value with human erythrocytes (human erythrocytes) is “not hemolytic”. Besides, in data set [1], the “α-helical content (% helix)” value worked out at 3.3% and the “inducible helical structure Δ[Θ]222 nm TFE-Aqueous” value was 881.

As to “Ac-ALKKLLSTLSSA(Dbu)SS(Dbu)LSTLLKALKK-amide [D57]”, in data set [1], the “α-helical content (% helix)” value is given as 5.9% and the “inducible helical structure Δ[Θ]222 nm TFE-Aqueous” value was found to be 574.
